{"source": "patent US20070173463A1", "about": "“Method and composition for treating otitis media” (priority 2006, published 2007)", "origin": "cited, not measured here", "details": "topical use in the ear; cited from earlier work", "data": [{"substance": "neomycin", "values": [{"measurement": "toxicity for the inner ear (ototoxicity)", "result": "scattered reports of ototoxicity"}]}]}
